The text below walks through data of PMC7394479 (Journal of medicinal chemistry, 2020).

For data set [1] the following is noted: cited from earlier work.
The conditions of data set [2]: cited from earlier work. This is another data set of the same source.
For data set [3] the following is noted: mice, from peak concentrations at 0.5 h after injection.

The structures appear in SMILES notation. Converted amounts (≈) assume the structure as drawn. Read-outs that look alike come from different tables or passages of the source.

A word on the aqueous solubility: it is how much of the substance goes into solution per volume. As to `COc1cc(/C=C/C(=O)NCCn2c(C(F)(F)F)cc3ccccc32)cc(OC)c1OC` [compound 1], the brain-to-plasma ratio in data set [1] and in data set [3] was 1.7 each time. Also, the plasma half-life in data set [1] (rodents) was 1.7 h. Besides, the aqueous solubility in data set [2] was 27 µM (≈ 12.1 µg/mL).
